# From PubChem BioAssay AID540308 (The Scripps Research Institute Molecular Screening Center, 2011)
# Protein sequences, listed by entry. Tags and fused reporters are not part of them.
# UniProt P32245, whole entry, looked up: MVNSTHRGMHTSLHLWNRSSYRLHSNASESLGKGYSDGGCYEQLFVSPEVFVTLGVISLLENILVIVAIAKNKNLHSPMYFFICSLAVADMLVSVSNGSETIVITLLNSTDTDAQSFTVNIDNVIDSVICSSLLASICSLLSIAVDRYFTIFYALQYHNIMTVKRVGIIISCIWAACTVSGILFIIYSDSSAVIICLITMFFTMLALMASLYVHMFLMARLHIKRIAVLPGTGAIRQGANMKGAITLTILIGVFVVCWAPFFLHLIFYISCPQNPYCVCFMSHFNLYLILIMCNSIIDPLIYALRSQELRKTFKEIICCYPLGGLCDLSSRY
# Only a part is listed here, and it is no random draw. Calls of active or inactive are those of the source.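 Rule for the calls: active = activation above a per-plate cutoff, the mean activation of sample wells on that plate plus 3 SD (cut at about 8% in these data); inactive = the rest.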
# Target: Melanocortin receptor 4 (Homo sapiens) (UniProt P32245)
# Assay: MC4R agonists recruiting beta-arrestin, primary screen, cell-based, luminescence, agonist arm of biased-ligand search (AID 540308)
# Conditions: U2OS MC4R beta-arrestin complementation, at 8.9 µM, active compounds read high, percent of melanotan II response, DMSO zero
row,Structure (SMILES),activation
1,Cc1ccc(NP(=O)(Oc2cccc(C)c2)Oc2cccc(C)c2)nc1,inactive: -1.37%
2,c1ccc(-c2nn[nH]n2)c(-c2nn[nH]n2)c1,inactive: 1.87%
3,CCNC(=S)/N=C(\N)N[N+](=O)[O-],inactive: -4.19%
4,O=C(NC1CCS(=O)(=O)C1)NP(=S)(Oc1ccccc1)Oc1ccccc1 (stereo unspecified),inactive: -1.28%
5,O=P1(N(CCCl)CCCl)OCCC2CCCCN21 (stereo unspecified),inactive: -1.71%
6,CCC(=O)N1C2C3N(C(=O)CC)C1C1N(C(=O)CC)C(C(N1C(=O)CC)N3C(=O)CC)N2C(=O)CC,inactive: -0.78%
7,O=C(OC1CN2CCC1CC2)c1ccccc1 (stereo unspecified),inactive: -0.87%
8,Cc1ccc(OP(=O)(Nc2ccccn2)Oc2ccc(C)cc2)cc1,inactive: -1%
9,CC(=O)NC(SC(=S)N(CC(C)C)CC(C)C)C(Cl)(Cl)Cl (stereo unspecified),inactive: -0.84%
10,COC(=O)c1cc2c(s1)N=C(c1ccccc1)N(C)P2(=O)N1CCOCC1 (stereo unspecified),inactive: -0.3%
11,O=c1c2cc([N+](=O)[O-])ccc2[nH]c2c([N+](=O)[O-])cc([N+](=O)[O-])cc12,inactive: -4.28%
12,CN(C)C(=O)Oc1noc2ccccc12,inactive: 0.37%
13,CC(NC(=O)COC(=O)C(O)(c1ccccc1)c1ccccc1)c1ccccc1 (stereo unspecified),inactive: -1.92%
14,Cc1ccccc1OP(=O)(Nc1ccccn1)Oc1ccccc1C,inactive: 2.98%
15,CCOc1ccc(C2=NCC(CBr)S2)cc1 (stereo unspecified),inactive: -0.43%
16,O=P1(Nc2nc3ccc(Cl)cc3s2)COc2ccccc2O1 (stereo unspecified),inactive: -1.42%
17,CC(C)(C)C(=O)NC(Sc1ccccc1)C(Cl)(Cl)Cl (stereo unspecified),inactive: 1.17%
18,CCc1cc(O)c([N+](=O)[O-])c(C)c1[N+](=O)[O-],inactive: -0.86%
19,C[C@H]1OP(=O)(Oc2ccccc2)C[C@@H]2O[C@@H]21 (stereo partly specified),inactive: -0.93%
20,C[C@@H]1C=CCP(=O)(Oc2ccccc2)O1 (stereo partly specified),inactive: -1.15%
21,Cc1ccccc1CN(C)C(=O)COC(=O)C(O)(c1ccccc1)c1ccccc1,inactive: 5.7%
22,COC(=O)C1(C)COP(=O)(NCc2ccccc2)OC1 (stereo unspecified),inactive: -0.8%
23,CC(=O)c1ccc(N2CC2c2ccncc2)cc1 (stereo unspecified),inactive: 0.71%
24,N#C/C(=C\c1ccc(N(CCBr)CCBr)cc1)C(N)=O,inactive: -1.02%
25,CC(=O)Nc1ccc(Oc2c([N+](=O)[O-])cc([N+](=O)[O-])cc2[N+](=O)[O-])cc1,inactive: -4.24%
26,CC(=O)Nc1ccc([As](=O)(O)O)c(O)c1,inactive: -1.59%

row,Structure (SMILES),activation
1,CC(C)C(=O)NC(Sc1ccccc1)C(Cl)(Cl)Cl (stereo unspecified),inactive: 2.12%
2,O=P(Nc1nccs1)(c1ccccc1)c1ccccc1,inactive: -1.62%
3,c1nnnn1CCn1cnnn1,inactive: -0.14%
4,COc1ccc(C[C@H](C)NC[C@@H](O)c2ccc(O)c(NC=O)c2)cc1,inactive: 1.47%
5,O=P(Nc1ccccn1)(c1ccc(Br)cc1)c1ccc(Br)cc1,inactive: 2.46%
6,CN(C)C1(CNC(=O)c2ccc(Cl)c(S(N)(=O)=O)c2)CCCCC1,inactive: -2.17%
7,COc1ccc(N)c([N+](=O)[O-])c1[N+](=O)[O-],inactive: -4.04%
8,C[C@H]1OP(=O)(Oc2ccccc2)[C@H](O)[C@H](O)[C@H]1N=[N+]=[N-] (stereo partly specified),inactive: 0.4%
9,O=P(Nc1nc2ccccc2s1)(c1ccccc1)c1ccccc1,inactive: 1.01%
10,O=[As](O)(c1ccccc1)c1ccc(O)cc1,inactive: 0.44%
11,O=[N+]([O-])c1ccc(O)c(/C=N/Nc2ccc([N+](=O)[O-])cc2[N+](=O)[O-])c1,inactive: 1.6%
12,O=[N+]([O-])c1ncn(CCn2cnc([N+](=O)[O-])n2)n1,inactive: -0.34%
13,CC(=O)NC(SC(=S)N(C)C)C(Cl)(Cl)Cl (stereo unspecified),inactive: 0.31%
14,O=C(OC1CN2CCC1CC2)c1cccc(Cl)c1 (stereo unspecified),inactive: -1.08%
15,C(Cc1nn[nH]n1)Cc1nn[nH]n1,inactive: -1.01%
16,Nc1ccc([As](=O)(O)c2ccc([N+](=O)[O-])cc2)cc1,inactive: -1.25%
17,O=P1(N(CCCl)CCCl)OCCCS1 (stereo unspecified),inactive: -2.07%
18,O=C(Nc1cc([As](=O)(O)O)ccc1O)c1ccccc1,inactive: 0.56%
19,O=[N+]([O-])c1ncn(CCn2ncnc2[N+](=O)[O-])n1,inactive: -0.25%
20,CC(C)(C)C(=O)NC(Sc1ccncn1)C(Cl)(Cl)Cl (stereo unspecified),inactive: 2.27%
21,O=C(O)CNc1ccc([As](=O)(O)O)cc1,inactive: -2.38%
22,COC(=O)C1(C)COP(=O)(Nc2ccccc2)OC1 (stereo unspecified),inactive: -0.66%
23,O=[N+]([O-])c1cccc(NC2=NCC(CBr)S2)c1 (stereo unspecified),inactive: -0.02%
24,COc1ccc(C2=NCC(CBr)S2)cc1 (stereo unspecified),inactive: -0.79%
25,CCc1nc2c(n1)c1c(non1O)c1c2no[n+]1[O-],inactive: -1.18%
26,O=[N+]([O-])c1cc([N+](=O)[O-])c(CCNc2ccccc2)c([N+](=O)[O-])c1,inactive: -2.52%

row,Structure (SMILES),activation
1,Cc1ccc(NP(=O)(Oc2ccccc2)Oc2ccccc2)nc1,inactive: -3.58%
2,O=[N+]([O-])c1cccc2n[nH]nc12,inactive: -0.51%
3,CC(=O)N1C2C3N(C(C)=O)C1C1N(C(C)=O)C(C(N1C(C)=O)N3C(C)=O)N2C(C)=O,inactive: 0.27%
4,CCN(/C(=N/P(=O)(N1CCOCC1)N1CCOCC1)N1CCOCC1)c1ccc(OC)cc1,inactive: 1.27%
5,C[N+]1=C2C=CC=CC=C2SC12C([N+](=O)[O-])=CC([N+](=O)[O-])=C[C-]2[N+](=O)[O-] (stereo unspecified),inactive: -5.26%
6,Nc1ccc([As](=O)(O)c2ccc(N)cc2)cc1,inactive: 1.74%
7,CC1CCN(C(=O)Oc2c(Cl)cc(Cl)c3cccnc23)CC1,inactive: -1.58%
8,c1cc(-c2nn[nH]n2)ccc1-c1nn[nH]n1,inactive: -0.35%
9,CN(C)C(=O)OCCc1n(C)cc[n+]1C,inactive: -2.13%
10,CC(C)c1nc(Nc2ccccc2)n(P(=O)(N(C)C)N(C)C)n1,inactive: -0.8%
11,CC(C)=N/N=C(\N)N[N+](=O)[O-],inactive: -0.48%
12,Cc1ccc(N/C(=N/P(=O)(N2CCOCC2)N2CCOCC2)N2CCOCC2)cc1,inactive: 0.12%
13,CN(C(=O)Cc1ccc(Cl)c(Cl)c1)[C@H]1CCCC[C@H]1N1CCCC1,inactive: 0.18%
14,NC(=O)c1cc([N+](=O)[O-])cc([N+](=O)[O-])c1N,inactive: -1.89%
15,CN1CCCC(OC(=O)C(c2ccccc2)c2ccccc2)C1 (stereo unspecified),inactive: 1.33%
16,Clc1ccc(Cl)c(NC2=NCC(CBr)S2)c1 (stereo unspecified),inactive: 0.27%
17,Cc1ccc(OP(=O)(Nc2nccs2)Oc2ccc(C)cc2)cc1,inactive: -0.64%
18,COc1ccccc1OP(=O)(Nc1ccc(C)cn1)Oc1ccccc1OC,inactive: -1%
19,O=C(NC(Sc1ccncn1)C(Cl)(Cl)Cl)c1ccccc1 (stereo unspecified),inactive: -2.23%
20,Oc1ccccc1CNc1ccccn1,inactive: 0.41%
21,Nc1cc(N)c2nonc2c1[N+](=O)[O-],inactive: 1.47%
22,CC(C)CC(=O)NC(Sc1ccc(Cl)cc1)C(Cl)(Cl)Cl (stereo unspecified),inactive: 0.15%
23,O=P(Nc1nc2ccc(Cl)cc2s1)(c1ccccc1)c1ccccc1,inactive: 0.22%
24,CN(C)P(=O)(N(C)C)n1c(Nc2ccccc2)nnc1-c1ccccc1,inactive: 0.28%
25,CCCC1OP(N)(=O)OCC1CC (stereo unspecified),inactive: 1.33%
26,CC(=O)Nc1ccc([As](=O)(O)O)cc1,inactive: 1.06%

row,Structure (SMILES),activation
1,O=C(O)c1ccccc1[As](=O)(O)O,inactive: -1.41%
2,Cc1ccc(NP(=O)(Oc2ccccc2F)Oc2ccccc2F)nc1,inactive: 0.53%
3,CN(C(=O)Cc1ccc(Cl)c(Cl)c1)[C@H]1CCCC[C@@H]1N1CCCC1,inactive: -0.29%
4,Cc1cc(SC(NC(=O)c2ccc(F)cc2)C(Cl)(Cl)Cl)ncn1 (stereo unspecified),inactive: -0.67%
5,CCOP(=O)(Nc1ccccc1)OCC,inactive: 0.95%
6,Nc1cccc2ccc([As](=O)(O)O)cc12,inactive: -1.95%
7,CCN(N=Nc1nonc1N)c1nonc1N,inactive: -1.64%
8,O=[N+]([O-])c1ccc(-c2cc([N+](=O)[O-])c(O)c([N+](=O)[O-])c2)cc1,inactive: -2.05%
9,COc1cc(C(=O)NCC2(N3CCOCC3)CCCCC2)ccc1OCC(C)C,inactive: 3.12%
10,O=[As](O)(c1ccc(O)cc1)c1ccccc1O,inactive: -1.41%
11,C[As](=O)(O)c1cccc(C(=O)O)c1,inactive: 0.09%
12,CC(Cc1ccc(O)cc1)NCC(O)c1cc(O)cc(O)c1 (stereo unspecified),inactive: 0.95%
13,Cc1ccc(OP(=O)(Nc2ccc([N+](=O)[O-])cn2)Oc2ccc(C)cc2)cc1,inactive: -0.63%
14,Cc1ccc2nc3c(c(C)c2c1)CC(C(Cl)Cl)S3 (stereo unspecified),inactive: 2.95%
15,ClCCSc1nnc(-c2cccnc2)o1,inactive: 0.24%
16,COC(=O)C1(C)COP(=O)(N2CCCCCC2)OC1 (stereo unspecified),inactive: -1.96%
17,CC(C)c1ccc(OP(=O)(Nc2ccccn2)Oc2ccccc2F)cc1 (stereo unspecified),inactive: 5.49%
18,O=[N+]([O-])c1cc([N+](=O)[O-])c(-c2ccn[nH]2)s1,inactive: -0.43%
19,CC(C)NC(=O)NP(=O)(Oc1ccccc1)Oc1ccccc1,inactive: 0.36%
20,O=C(OC1CN2CCC1CC2)c1cccc2[nH]cnc12 (stereo unspecified),inactive: -1.59%
21,CCN(CC)C(=S)SC(NC=O)C(Cl)(Cl)Cl (stereo unspecified),inactive: 0.7%
22,Cc1c2c(nc3ccccc13)SC(C(Cl)Cl)C2 (stereo unspecified),inactive: -2.13%
23,Cc1cc(=O)[nH]c(N[N+](=O)[O-])n1,inactive: -0.9%
